Molecular target: human macrodomain TARG1 (human, UniProt Q9Y530 1-152)
Experiment: AlphaScreen or HTRF
Details: both partners purified

The chains behind the UniProt entries cited, without tags or fusion partners. Where a name states a change or a piece, a line headed by the entry shows the natural chain unless it says otherwise.
UniProt Q9Y530: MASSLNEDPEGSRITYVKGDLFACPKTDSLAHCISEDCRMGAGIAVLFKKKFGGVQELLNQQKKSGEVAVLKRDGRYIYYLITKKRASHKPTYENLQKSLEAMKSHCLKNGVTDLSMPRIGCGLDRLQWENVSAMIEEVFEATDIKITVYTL

ARTKQTARKS [ADPr-conjugated biotin peptide ARTK(Bio)QTARK(Aoa-RADP)S]: binds.

Reference: paper PMC9926234 (Proceedings of the National Academy of Sciences of the …, 2023)
